Assay outcomes from PubChem.
ALDH1A1 block – inhibitors of human aldehyde dehydrogenase 1A1; Purified ALDH1A1, NADH fluorescence, propionaldehyde substrate; Potency, µM (highest dose often 75.3 µM), without a hit: at the highest dose activity, negative = inhibition, hits mostly inhibitors; 220,000 compounds, 7.3% hits; P00352; AID 1030; active = well fitted inhibition curve with a large enough effect, not every such curve was filed as active; inconclusive = small, poorly fitted or top-dose-only effect, or another doubt; inactive = no such curve, though single readings can be large or run the other way;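 note: potency is the fitted concentration of half-maximal effect; plate controls were no enzyme wells and a reference inhibitor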
miR-21 reporter – miR-21 reporter, rising signal. 340,000 tested, under 10 active. Potency, µM (highest dose often 38.3 µM), for the others: at the highest dose reporter change, positive = more light. HeLa miR-21 FLuc reporter, luciferase, 48 h. AID 2288; active = well fitted rising curve with a large enough effect; inconclusive = small, poorly fitted or top-dose-only effect; inactive = no such curve, though single readings can be large or run the other way;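 further: % of control where 0% means no effect; miR-21 action dims this reporter so a rising signal means less miR-21 action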
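HeLa miR-21-FLuc reporter line, endogenous miR-21; 2000 cells/well in DMEM/10% FBS; compound titration up to ~40uM final, 48 h, 37 degree Celsius; luciferase detection reagent, 15 min lysis, CCD luminescence.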
Sfp PPTase inh – Sfp phosphopantetheinyl transferase inhibition. 3.5% of 310,000 active. AID 1490. Potency, µM, inactives show max response, negative = inhibition, actives largely listed as inhibitors. Biochemical Sfp PPTase activity, qHTS; active = well fitted inhibition curve with a large enough effect; inconclusive = small, poorly fitted or top-dose-only effect, or another doubt; inactive = no such curve, though single readings can be large or run the other way;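 note: the enzyme is Sfp with the accession as filed and its product quenches rhodamine fluorescence; potency is the fitted concentration of half-maximal effect; 0% = enzyme reaction without inhibitor and -100% = no enzyme wells; top concentration of the series not given in the record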
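Buffer: 50 mM Hepes-Na pH 7.6, 10 mM MgCl2, 0.01% Nonidet P-40, 0.01% BSA. Enzyme 15 nM, pre-exposed to compound 15 min; substrates then added and fluorescence change tracked over 30 min.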
KDM4E inh – JMJD2E (human) inhibition | Potency, µM (highest dose often 57.1 µM), for inactives: at the top dose activity change, negative = inhibition, usual class: inhibitors | AID 2147 | 230,000 compounds, 1.6% hits | JMJD2E catalytic domain, FDH-coupled NADH fluorescence (FDH is formaldehyde dehydrogenase);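 note: potency is the fitted concentration of half-maximal effect; 0% = wells with enzyme and -100% = buffer wells without enzyme; nearly all actives have a fitted effect of over 50% in size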
G9a inh – inhibitors of human histone lysine methyltransferase G9a. Q96KQ7. AID 504332. G9a H3K9 monomethylation, AlphaScreen, 2 h. Potency, µM (series often up to 102 µM), inactives show at the highest dose activity, negative = inhibition, hits mostly inhibitors. 350,000 compounds, 8.8% hits; note: potency is the fitted concentration of half-maximal effect; % is set by controls: 0 for no effect and ±100 for the full control effect; nearly all actives have a fitted effect of over 75% in size
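Compounds were preincubated with 20 nM G9a for 15 min, after which biotinylated H3K9 peptide (500 nM) and SAM (20 uM) started a 2 h room-temperature reaction. Monomethylated product was quantified by antibody-based AlphaScreen chemiluminescence.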
LMNA splice mod – LMNA splicing modulation; HeLa LMNA splicing GFP/RFP minigene ratio, 48 h; Potency, µM (top dose mostly 46.1 µM), for inactives: at the top dose ratio change, negative = inhibition, actives largely listed as inhibitors; 200,000 compounds, 0.01% hits; active = well fitted inhibition curve with a large enough effect in the signal ratio, with a control signal flat, not every such curve was filed as active; inconclusive = small, poorly fitted or top-dose-only effect, or effect the other way, or a change in a side signal; the % refers to the signal ratio; note: potency is the fitted concentration of half-maximal effect; % is set by controls: 0 for no effect and ±100 for the full control effect
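Read-out is the ratio of GFP to DsRed2 object intensity, acquired by 488 nm laser-scanning cytometry on HeLa lamin A-EGFP minigene reporter cells. Compound incubation 48 hrs at 37 °C in Opti-MEM with 2% FBS; DMSO 0.5% final.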
Active calls of the source: *; i = inactive; ? = inconclusive; . = no result; [ ] = another dose, or the depositor's remark. Sampled rows, rich in hits. Any-hit rate of the full collection: about 13%. Unless noted, calls come from the whole dose curve; as a rule, active = well fitted curve in the direction sought with a large enough effect; inconclusive = small, poorly fitted or top-dose-only effect, or another doubt; inactive = no such curve, though single readings can be large; an effect the other way counts as inactive or inconclusive.

Second line of a record – KDM4E inh	G9a inh	LMNA splice mod	miR-21 reporter	Sfp PPTase inh	ALDH1A1 block
> Cc1cc(Nc2ccccc2)nc(N2CCN(C(=O)c3ccc4c(c3)OCO4)CC2)n1
 : .	-4.5%[59 µM]	.	.	.	.
> O=C(c1ccccc1)N1CCCCC(S(=O)(=O)c2ccc3ccccc3c2)C1=O (stereo unspecified)
 : -3.9%	?	7.4%	-4.1%	3.1%	10µM*
> Cc1ccc[n+](/C(C(=S)NCc2ccco2)=C(/[O-])c2ccccc2Cl)c1
 : -3.3%	?	1.9%	-0.4%	44.7µM*	-1.1%
> CC(C)(C)c1ccc(/C([O-])=C(/C(=S)NCc2ccco2)[n+]2ccccc2)cc1
 : -7.6%	?	7.1%	-8.6%	50.1µM*	10µM*
> CC(C)(C)c1ccc(C(=O)NC(=S)NCc2ccco2)cc1
 : .	-21.7%	.	-17.4%	5.6%	.
> Cn1cc(C(=O)NCc2ccc(Cl)cc2)c(=O)c2cc(S(=O)(=O)N3CCCCCC3)ccc21
 : .	-25.4%[59 µM]	.	-4.5%	.	.
> COc1cc(C(=O)OCC(=O)Nc2ccc(C)cc2)cc(OC)c1OC
 : .	18.6%	.	-0.5%	17.1%	.
> Nc1ccccc1C(=O)NNc1c2ccccc2nc2ccccc12
 : -28.7%	17.8µM*	.	-5.9%	-8.5%	.
> Cc1ccc(C(=O)NNc2c3ccccc3nc3ccccc23)cc1
 : i	17.8µM*	.	-34.0%	25.1µM*	.
> c1cncc(Nc2c3ccccc3nc3ccccc23)c1
 : .	?	.	15.8%	3.3%	.
> Clc1cncc(Cl)c1NNc1c2ccccc2nc2ccccc12
 : ?	1.26µM*	-7.5%	-7.5%	-7.1%	?
> O=C(NNc1c2ccccc2nc2ccccc12)c1ccc(Cl)cc1
 : .	35.5µM*	.	-1.2%	-16.8%	.
> Cc1c(NC(=O)C(C)OC(=O)c2cc(Cl)ccc2O)c(=O)n(-c2ccccc2)n1C (stereo unspecified)
 : .	49.2%	.	-1.7%	23.1%	.
> COc1ccc(NC(=O)COc2nc3ccccc3nc2N2CCOCC2)c(OC)c1
 : -20.1%	11.7%	-8.7%[46 µM]	-1.8%	5.6%	-10.1%
> CSc1nc(N(C)NC(=O)c2ccc(Cl)cc2)c2ccccc2n1
 : 8.3%	6.3%[59 µM]	?	21.9%	50.1µM*	11.8%
> COc1ccc(CC(=O)Nc2sc3c(c2C(=O)Nc2cccc(C)c2)CCCCC3)cc1
 : .	-46.6%[59 µM]	.	-2.4%	.	.
> Cc1cc(S(=O)(=O)C(CNC(=O)COc2ccc(Cl)cc2)c2cccs2)ccc1F (stereo unspecified)
 : .	32.2%[59 µM]	?	?	.	.
> O=C(COc1ccccc1)NCC(c1cccs1)S(=O)(=O)c1ccc(Cl)cc1 (stereo unspecified)
 : .	10µM*	13.6%[46 µM]	2.0%	.	.
> COc1ccc(CC(=O)NCC(c2cccs2)S(=O)(=O)c2ccc(Cl)cc2)cc1 (stereo unspecified)
 : .	8.91µM*	-13.4%[46 µM]	-3.1%	.	.
> Cc1ccc(S(=O)(=O)C(CNC(=O)Cc2ccc(Cl)cc2)c2cccs2)cc1 (stereo unspecified)
 : .	17.4%[59 µM]	3.8%[46 µM]	10.6%	.	.
> COCCn1c(C)cc(O)c(C(c2ccc(F)cc2)N2CCN(c3ccccc3)CC2)c1=O (stereo unspecified)
 : .	?	-7.2%[46 µM]	-4.0%	.	.
> CCN1c2ccccc2-c2nc(SCC(=O)Nc3cccc(C)c3C)ncc2S1(=O)=O
 : .	-5.3%[59 µM]	.	13.4%	.	.
> Cc1cc(C)n2nc(-c3ccc(Cl)cc3)cc2n1
 : .	59.4%	.	-62.9%	-12.7%	.
> Cc1nc2cc(-c3ccc(Cl)cc3)nn2c(NCCN(C)C)c1C
 : -2.0%	70.8µM*	.	-74.6%	13.9%	?
> Cc1cc2c(c(=O)n1Cc1cccnc1)C(c1ccccc1)C(C#N)=C(N)O2 (stereo unspecified)
 : 5.6%	-4.4%[2.33 µM]	7.5%	-3.8%	-24.7%	10.1%
> COc1ccc(C2C(C#N)=C(N)Oc3cc(C)n(Cc4ccco4)c(=O)c32)cc1 (stereo unspecified)
 : 6.9%	25.1µM*	-2.5%	-1.6%	31.6µM*	?
> COc1cccc(C2C(C#N)=C(N)Oc3cc(C)n(Cc4ccco4)c(=O)c32)c1 (stereo unspecified)
 : 5.9%	50.1µM*	5.6%	-3.6%	7.94µM*	-14.7%
> Cc1cc2c(c(=O)n1CCCn1ccnc1)C(c1ccco1)C(C#N)=C(N)O2 (stereo unspecified)
 : -0.5%	?	2.8%	-2.9%	13.7%	7.2%
> Cc1nn(-c2ccccc2)c2ncc(C(=O)c3cc(Cl)ccc3O)cc12
 : -4.2%	0.794µM*	?	-9.9%	2.2%	-3.6%
> COc1ccc(C(CNC(=O)c2cc(SC)ccc2Cl)N(C)C)cc1 (stereo unspecified)
 : 4.4%	-8.9%	.	-1.5%	13.8%	5.3%
> COc1ccc(C(CNC(=O)c2ccccc2SC)N(C)C)cc1 (stereo unspecified)
 : 1.7%	7.94µM*	-6.9%[46 µM]	-11.7%	9.0%	-5.2%
> CN(CC(=O)Nc1ccc(F)cc1)C(=O)Cn1c(=O)oc2ccccc21
 : .	-5.8%[12.7 µM]	.	.	.	.
> CSc1ccccc1NC(=O)CN(C)C(=O)Cn1c(=O)oc2ccccc21
 : .	50.1µM*	.	.	.	.
> COc1ccc(C(CNC(=O)Cn2c(=O)oc3ccccc32)N(C)C)cc1 (stereo unspecified)
 : .	8.91µM*	.	0.1%	20µM*	.
> COc1cccc(NC(=O)Cn2c(=O)oc3ccccc32)c1
 : -1.1%	8.1%[12.7 µM]	-6.9%	-1.3%	13.2%	1.2%
> CSc1sc(C(=O)NN)c2c1C1(CCC2)SCCS1
 : 9.1%	-7.8%	-5.9%[46 µM]	0.3%	17.9%	0.447µM*
> O=C(CN(C(=O)c1csnn1)c1cccc2ccccc12)NC1CCCC1
 : -4.4%	-26.4%	?	-3.2%	12.9%	0.0%
> COc1ccc(/C=C/C2=NC(=C\N(C)C)/C(=O)O2)cc1
 : ?	22.3%[59 µM]	2.9%	-54.1%	79.4µM*	?
> CN(C)/C=C1\N=C(c2ccccc2)OC1=O
 : -3.1%	1.2%	.	-28.8%	21.2%	-1.5%
> COc1cccc(NC(=O)CN2C=NS(=O)(=O)c3ccccc32)c1
 : .	0.5%[59 µM]	-4.3%[46 µM]	5.9%	.	.
> CCOC(=O)c1c(=O)n(O)c2ccc(OC)cc2[n+]1[O-]
 : -17.1%	50.1µM*	-4.5%	-4.8%	1.9%	?
> CCOC(=O)c1cc2ccc(OC)cc2oc1=O
 : ?	33.2%[0.501 µM]	5.3%[0.0737 µM]	-23.4%	6.9%	?
> CCOc1cc(C(=O)NCCc2csc(-c3ccc(C)cc3)n2)cc(OCC)c1OCC
 : .	18.0%[59 µM]	?	13.4%	.	.
> Cc1nc(Nc2ccccc2)c2nc(-c3ccccc3)n(CCN3CCOCC3)c2n1
 : ?	.	.	.	1.8%	?
> O=C1CC(c2ccco2)=Nc2ccccc2N1
 : 1.2%	?	-9.7%	-2.2%	50.1µM*	?
> CCOC(=O)c1ccc(NC(=O)c2c(NCc3cccc(OC)c3OC)sc3c2CCC3)cc1
 : .	14.1µM*	?	-2.8%	.	.
> COc1ccccc1NC(=O)c1c(NCc2ccc(OC)c(OC)c2OC)sc2c1CCC2
 : .	?	-7.0%[46 µM]	0.2%	.	.

An excerpt of these results, as tab-separated lines.
SMILES	KDM4E inh	G9a inh	LMNA splice mod	miR-21 reporter	Sfp PPTase inh	ALDH1A1 block
O=C1CC(c2ccco2)=Nc2ccccc2N1	1.2%	?	-9.7%	-2.2%	50.1µM*	?
CCOC(=O)c1ccc(NC(=O)c2c(NCc3cccc(OC)c3OC)sc3c2CCC3)cc1	.	14.1µM*	?	-2.8%	.	.
COc1ccccc1NC(=O)c1c(NCc2ccc(OC)c(OC)c2OC)sc2c1CCC2	.	?	-7.0%[46 µM]	0.2%	.	.
